The experiment concerns Pseudomonas aeruginosa. The following applies: DSMPA14.

This note sets out measurements from ChEMBL document CHEMBL4842333, “Catechol-Bearing Polyketide Derivatives from Sparticola junci” (2021).

By MIC is commonly meant the lowest concentration found to suppress growth. GENTAMICIN gave an MIC of 0.5 mg/L.
